{
  "source": "patent US20060159666A1",
  "about": "“Method of potentiating inflammatory and immune modulation for cell and drug therapy” (priority 2004, published 2006)",
  "molecules": {"B1": {"name": "IL-3: cytokine known to stimulate hematopoietic cells, used as chemoattractant and culture stimulant (protein, UniProt P08700 20-152, looked up)", "Interleukin-3": "APMTQTTPLKTSWVNCSNMIDEIITHLKQPPLPLLDFNNLNGEDQDILMENNLRRPNLEAFNRAVKSLQNASAIESILKNLLPCLPLATAAPTRHPIHIKDGDWNEFRRKLTFYLKTLENAQAQQTTLSLAIF"}},
  "key": {"[1]": {"tested_on": "HUCBCs", "assay": "96-Chemotx migration assay of HUCBCs to recombinant chemoattractants", "type": "cell-based, human", "conditions": "MCP-1 5-30 ng/mL, IL-3 1-10 ng/mL, TPO 10-40 ng/mL; 4 hr; ATP luminescence", "description": "To examine whether MCP-1, IL-3 or TPO were chemoattractant(s) for HUCBCs, migration assays were performed. MCP-1, IL-3 and TPO were selected as chemoattractants because MCP-1 has been found in rat ischemic striatal tissue and IL-3 and TPO are often added to culture medium for maintaining long-term cultures and enhancing progenitor cell proliferation.\nHUCBCs were prepared as described above and cultured for 24 hr before use. The 96-Chemotx chambers (NeuroProbe, Gaithersburg, Md.) were used for the migration assays. The chamber is a 96-well plate consisting of bottom wells to hold the unknowns or chemoattractant and a top plate, which is a polycarbonate membrane with 5 μm pore size. The chemoattractants used in this study were human recombinant MCP-1 (5, 10, 20 and 30 ng/mL; Endogen, Woburn, Mass.), IL-3 (1, 5 and 10 ng/mL), TPO (10, 25 and 40 ng/mL), and stromal cell-derived factor-1 (SCF-1; 100 ng/mL); positive control (SDF-1; Serologicals, Norcross, Ga.), along with the serum-free DMEM and Ex Vivo 10. All were pipetted (300 μL) directly into the bottom wells, in triplicate, after which the top plate was securely attached. The HUCBCs were pipetted directly into each top well at a concentration of 62,000 cells per 25 μL. […] The migration plate was read in an automated plate reader (BioTek) set to the appropriate luminescence."}, "[2]": {"tested_on": "HUCBCs", "assay": "Human cytokine antibody array of HUCBC conditioned medium", "type": "cell-based", "conditions": "Ex Vivo 10 medium; IL-3 5 ng/mL or TPO 25 ng/mL for 5 d; 42-cytokine array", "description": "The mononuclear fraction of the HUCBCs was obtained from Saneron CCEL Therapeutics, Inc. (Oldsmar, Fla.). Frozen samples were thawed in 10 mL of DMEM (Gibco), supplemented with 5% fetal bone serum (FBS, Gibco) and gentamicin (50 μg/mL, Sigma), or with Ex Vivo 10 media with gentamicin (50 μg/mL, Sigma). After centrifugation for 10 min at 200 rpm, the supernatant was removed and the cells were resuspended in 1 mL of the same medium. The viability of all samples ranged from 73% to 95% as determined by the ability to exclude trypan blue dye. Cells were then cultured for 3 to 14 d for cytokine arrays and ELISA assays; cells cultured in Ex Vivo 10 media were further stimulated with IL-3, TPO or both.\nHuman Cytokine Arrays: The therapeutic benefit of the HUCBCs may be through production of cytokines or chemokines at the site of injury. In order to address this, we used human cytokine arrays to establish whether the HUCBCs secreted these proteins. […]\nThe medium from these cultures was harvested and incubated with the array membrane to allow cytokine binding to immobilized antibodies spotted on the arrays. […] The most cytokines were recorded with 5×10^7 million HUCBCs in Ex Vivo 10 Medium alone. […]\nHuman Cvtokine Array. The conditioned medium from HUCBCs was analyzed for 23 different cytokines. […]"}},
  "data": [
    {"molecule": "B1", "values": [
      {"measurement": "HUCBC migration to chemoattractant compared to controls (DMEM and PBS)", "setting": "[1]", "value": "Significantly more HUCBCs migrated"},
      {"measurement": "cytokine release from HUCBCs after stimulation", "setting": "[2]", "value": "release of many cytokines"}
    ]}
  ]
}
